# Literature values, collected in patent US20050043786A1, “Methods and apparatus for treatment of aneurysmal tissue” (Medtronic AVE, Inc., priority 2003, published 2005).
# Details: in vivo
smiles,measurement,value
NCCCC[C@H](N[C@@H](CCc1ccccc1)C(=O)O)C(=O)N1CCC[C@H]1C(=O)O [lisinopril],route of clearance / elimination,cleared as the intact compound in the kidney
